Test results as given in patent publication US11779597B2, “Method of treating Parkinson's and other neurodegenerative diseases” (Vector Vitale IP LLC, priority 2019, dated 2023).

How the values were obtained:
Format in all cases: in vivo
[1] = tested on: dopaminergic neurons in the black substance in rat models of Parkinson's disease (6-OHDA); experiment: Apomorphine test / destruction of dopaminergic neurons after prophylactic administration; settings: 6-OHDA rat models
Procedure: (§1) Methods: Adult mature rodents were used in the study. […] Before prophylactic administration of the experimental drugs, the animals underwent an open field test to assay their general locomotor activity levels and anxiety. The prophylactic course consisted of 10 daily intraperitoneal injections of the drugs (in the case of combination drug, its components were administered at an interval of 2 hours). After the end of prophylactic course, Parkinson's disease was modelled in the animals. […] Ten days after the last (second) apomorphine test, the animals' behavioral responses were assessed in the open field test followed by euthanasia and analysis of functional (metabolic and phenotypic) profiles of phagocytes of different localization. Thus, the study of the functional profile of phagocytes in rat models of Parkinson's disease was performed on day 28 after the end of the course of prophylactic treatment with the experimental drugs. […] Functional characteristics of circulating phagocytes (monocytes and neutrophils) were evaluated in whole blood taken into a tube containing EDTA used as an anticoagulant. Mononuclear and polymorphonuclear phagocytes were analyzed on a flow cytofluorimeter using a gating method. […] The hemogram parameters were analyzed on the hematological analyzer Particle counter model PCE 210 (ERMA, Japan) adapted for the study of blood cells of rats and mice.

microglia = experiment: Functional profile of microglia in 6-OHDA rat models after prophylactic administration; settings: prophylactic i.p.
Procedure: as §1

[2] = tested on: TH-positive neurons in the midbrain; experiment: Immunohistochemical identification of TH-positive neurons; settings: LPS rat models, versus LPS models administered water
circulating leukocytes = experiment: Blood count values in LPS rat models
Procedure: (§2) On the 1st day of the experiment, rats were either operated to model hemi-parkinsonism or sham operated. From the 9th to the 18th day of the experiment, the animals were injected either deuterium-depleted water or the test substance, according to their allocation into groups, for 10 days. On the 8th day of the experiment (before initiation of treatment—apomorphine test I) and on the 21st day of the experiment (after the end of administering the test substance —apomorphine test II) the animals underwent an apomorphine test to analyze the development of hemi-parkinsonism which correlates with the number of destroyed dopaminergic neurons. In addition, a follow-up analysis of fecal water content was carried out, i.e., before the start of treatment on the 8th day after the operation, as well as on the 21st (after the end of treatment) and the 28th day (before autopsy). On the 24th day of the experiment, behavioral tests were carried out in all groups. All animals were weighed before autopsy. […]
The blood count values were analyzed at the completion of the experiment (day 28). The absolute number of leukocytes, as well as the absolute and relative numbers of lymphocytes, monocytes and neutrophilic granulocytes were calculated.

[3] = tested on: circulating monocytes and granulocytes; experiment: Functional and phenotypic properties of circulating phagocytes in LPS rat models; settings: animal models of PD
Procedure: as §2, with “autopsy).” for “autopsy). On the 24th day of the experiment, behavioral tests were carried out in all groups. All animals were weighed before autopsy.”
To assess the anti-inflammatory and immunomodulating effects of the test substance, microglia and peritoneal macrophages were isolated. Phenotypic and functional features of peripheral blood phagocytes were evaluated without their fractioning (using whole blood). […]
Phagocytic activity of microglia, peritoneal macrophages and peripheral blood phagocytes was analyzed on a flow cytometer using FITC-labeled S. aureus Wood 46 cells as an object of phagocytosis. […]

For “^64Zn-enriched zinc aspartate [^64Zne-asp]”, the “rate of rotational movements in the control relative to treated animals with 100% destruction” value [1] was 2.2 times, the “relative number of CD14+ cells in microglia” value (microglia) was “decrease” and the “relative number of CD206+ cells in microglia” value (microglia) was “significant increase”. The “number of TH-positive neurons in the midbrain” value ([2]; listed as 64Zn-asp) was “significant increase”, the “number of TH-positive neurons in the midbrain” value ([2]; listed as zinc preparation) was “statistically significant increase” and the neutrophil-to-lymphocyte ratio (circulating leukocytes) was “normalization”. For the same substance, the “peripheral inflammation (relative number of leukocytes)” value (circulating leukocytes) was “reduced”, the “relative number of circulating monocytes (phagocytic cells)” value [3] was “slight decrease” and the “relative number of phagocytic granulocytes (granulocyte index)” value [3] was “did not produce any effect”.
